The values below come from ChEMBL document CHEMBL1146709, “Tetrahydroisoquinoline based sulfonamide hydroxamates as potent matrix metalloproteinase inhibitors” (Bioorg Med Chem Lett, 2004).

The chains behind the UniProt entries cited, without tags or fusion partners. Where a name states a change or a piece, a line headed by the entry shows the natural chain unless it says otherwise.
UniProt P51511: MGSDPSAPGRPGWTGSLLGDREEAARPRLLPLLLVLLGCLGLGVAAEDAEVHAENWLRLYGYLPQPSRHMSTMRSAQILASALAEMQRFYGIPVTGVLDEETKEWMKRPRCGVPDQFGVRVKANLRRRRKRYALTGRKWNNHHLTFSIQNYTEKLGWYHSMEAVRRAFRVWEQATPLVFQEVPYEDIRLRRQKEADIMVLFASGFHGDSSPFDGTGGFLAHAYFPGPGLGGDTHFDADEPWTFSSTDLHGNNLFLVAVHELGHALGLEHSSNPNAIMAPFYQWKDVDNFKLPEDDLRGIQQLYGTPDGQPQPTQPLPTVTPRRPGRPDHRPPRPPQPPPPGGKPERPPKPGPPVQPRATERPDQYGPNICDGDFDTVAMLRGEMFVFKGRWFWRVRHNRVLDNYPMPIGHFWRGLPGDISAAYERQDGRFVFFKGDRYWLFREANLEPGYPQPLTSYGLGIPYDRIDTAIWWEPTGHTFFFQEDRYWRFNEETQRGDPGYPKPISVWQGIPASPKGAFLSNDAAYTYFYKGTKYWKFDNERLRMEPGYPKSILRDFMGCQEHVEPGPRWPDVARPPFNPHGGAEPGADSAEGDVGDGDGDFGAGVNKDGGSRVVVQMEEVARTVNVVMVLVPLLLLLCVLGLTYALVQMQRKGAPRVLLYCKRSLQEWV

pIC50: −log10 of the molar value.

In the assay the target is Matrix metalloproteinase-15 (Homo sapiens, UniProt P51511). Briefly: Inhibition of matrix metalloprotease-15 (MMP-15).

Broadly, the pIC50 is the negative decadic logarithm of the IC50, by convention in mol/L. A lower pIC50 goes with a high IC50. In turn, `CNC(=O)[C@H](Cc1c[nH]c2ccccc12)NC(=O)[C@@H](CC(=O)NO)CC(C)C` [ILOMASTAT] gave a pIC50 of 8.22.
